This assay deals with Staphylococcus aureus. Briefly: Antibacterial activity against Staphylococcus aureus ATCC 13709 infected in iv dosed BALB/c mouse septicemia model assessed as protection from lethal infection after 24 hrs. The assay is classed as functional.

Regarding `Cc1cc2nc(-c3nccs3)n(-c3ccc4c(N)nc(N)nc4c3)c2cc1C`, the Activity result was “Dose-dependent effect”.
